{"sequences": {"note": "Amino acid sequences for entries named in this document (tags omitted). A change or cut given only in a name is not applied to a line headed by its entry. Chains listed by the source or under a name are the forms on record and can include a tag or linker. Residues count along the entry.", "UniProt P01375, 77-233 limits assumed": "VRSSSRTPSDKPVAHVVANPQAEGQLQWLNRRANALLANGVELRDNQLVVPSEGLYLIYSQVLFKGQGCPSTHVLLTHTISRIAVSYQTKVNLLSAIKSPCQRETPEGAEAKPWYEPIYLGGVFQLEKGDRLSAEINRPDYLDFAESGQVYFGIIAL", "UniProt P01375, with tags, fused parts or gaps DEL77-88": "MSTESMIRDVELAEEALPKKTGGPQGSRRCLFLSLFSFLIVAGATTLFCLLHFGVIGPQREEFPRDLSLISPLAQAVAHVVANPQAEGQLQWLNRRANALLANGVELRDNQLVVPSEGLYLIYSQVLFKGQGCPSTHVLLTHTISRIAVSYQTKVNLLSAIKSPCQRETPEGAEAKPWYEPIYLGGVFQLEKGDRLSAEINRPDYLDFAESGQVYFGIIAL"}, "source": "paper PMC9709720", "about": "“An orally available small molecule that targets soluble TNF to deliver anti-TNF biologic-like efficacy in rheumatoid arthritis” (Frontiers in Pharmacology, 2022)", "key": {"[1]": {"biological_target": "human membrane TNF (NSO-mTNFΔ1-12 cells) (Homo sapiens, UniProt P01375, DEL77-88)", "test": "Binding kinetics to membrane TNF on NSO-mTNFΔ1-12 cells (CA 1974 antibody, flow cytometry)", "settings": "NSO-mTNF cells, 0.1 μM"}, "In vivo PK in dog": {"test": "In vivo PK in dog", "settings": "male; for Bioavailability: i.v. and p.o. exposure from different studies"}, "[2]": {"test": "Fraction unbound in plasma by equilibrium dialysis"}, "[3]": {"test_system": "free soluble TNF in human synovial tissue", "test": "Quantitative systems pharmacology (QSP) model of TNF in synovial tissue", "settings": "across in vitro, in vivo and QSP systems"}, "pKa": {"test": "pKa", "assay_type": "physicochemical", "settings": "tertiary amine"}, "human TNF [4]": {"biological_target": "T1, human TNF (Homo sapiens, UniProt P01375)", "test": "Surface plasmon resonance binding of SAR441566 to TNF (Biacore T200)", "settings": "SPR, average n = 4"}, "human TNF [5]": {"biological_target": "T1, human TNF", "test": "TNF occupancy in zymosan activated human whole blood (ELISA, compound-bound/total TNF)"}, "human hepatocytes": {"test_system": "human hepatocytes", "test": "In vitro metabolic clearance in suspended human hepatocytes"}, "In vivo PK in rat": {"test": "In vivo PK in rat", "settings": "male"}, "[6]": {"test_system": "TNF (zymosan-activated CD11b expression on granulocytes in human whole blood)", "test": "Zymosan stimulated CD11b expression on granulocytes in human whole blood (WB assay)", "settings": "read-out: IC90 inhibition of CD11b expression, total compound, geometric mean"}, "[7]": {"test_system": "collagen-induced arthritis (CIA) model, hind-paw bone", "test": "3D volumetric micro-CT of limb bones from CIA model"}, "[8]": {"test_system": "collagen-induced arthritis (CIA) model", "test": "Collagen-induced arthritis (CIA) model, therapeutic dosing", "settings": "for Percentage reduction in mean AUC cfb arthritis score vs vehicle: 20 days, combined 3 CIA studies"}, "[9]": {"test": "Human PK prediction (allometry, IVIVE, mechanistic Vss)"}, "Caco-2 TC7 cells": {"test_system": "Caco-2 TC7 cells", "test": "Permeability and bi-directional flux/efflux in Caco-2 TC7 cells", "assay_type": "in vitro ADME", "settings": "for Efflux: no inhibitor"}, "[10]": {"test": "In vivo PK in cynomolgus monkey", "settings": "Cyno, male; for Bioavailability: i.v. and p.o. exposure from different studies"}, "[11]": {"settings": "total compound (includes protein bound), geometric mean n = 12"}}, "note": "Marks after values point to notes of the source that are not given here."}
{"smiles": "CN1C(=O)c2cccc(OC(F)F)c2[C@H]2C[C@@H]1c1nc3ccc(-c4cnc(C5(N)CCC5)nc4)cc3n12", "values": [{"measurement": "TNF-compound complex formation on cell surface compared to similar compounds of the same series", "setting": "[1]", "result": "fastest"}, {"measurement": "AUCinf", "setting": "In vivo PK in dog; IV, 1 mg/kg", "result": "4,200 ng.h/ml"}, {"measurement": "CL", "setting": "In vivo PK in dog; IV, 1 mg/kg", "result": 0.267, "unit": "L/h/kg"}, {"measurement": "Cmax", "setting": "In vivo PK in dog; IV, 1 mg/kg", "result": "1,510 ng/ml"}, {"measurement": "T1/2,z", "setting": "In vivo PK in dog; IV, 1 mg/kg", "result": 7.00, "unit": "h"}, {"measurement": "Vz", "setting": "In vivo PK in dog; IV, 1 mg/kg", "result": 2.68, "unit": "L/kg"}, {"measurement": "AUCinf", "setting": "In vivo PK in dog; PO, 30 mg/kg", "result": "131 000 ng.h/ml"}, {"measurement": "Cmax", "setting": "In vivo PK in dog; PO, 30 mg/kg", "result": "6,920 ng/ml"}, {"measurement": "tmax", "setting": "In vivo PK in dog; PO, 30 mg/kg", "result": 2, "unit": "h"}, {"measurement": "Bioavailability", "setting": "In vivo PK in dog; PO, 30 mg/kg", "result": "108 ^b %"}, {"measurement": "AUCinf", "setting": "In vivo PK in dog; PO, 100 mg/kg", "result": "258 000 ng.h/ml"}, {"measurement": "Cmax", "setting": "In vivo PK in dog; PO, 100 mg/kg", "result": "6,320 ng/ml"}, {"measurement": "tmax", "setting": "In vivo PK in dog; PO, 100 mg/kg", "result": 7, "unit": "h"}, {"measurement": "Bioavailability", "setting": "In vivo PK in dog; PO, 100 mg/kg", "result": "62 ^b %"}, {"measurement": "Fraction unbound human plasma", "setting": "[2]", "result": 25, "unit": "%"}, {"measurement": "predicted target range free Cav", "setting": "[3]", "result": "8 to 24", "unit": "nM"}, {"measurement": "pKa", "setting": "pKa", "result": 8.6}, {"measurement": "Kd", "setting": "human TNF [4]", "result": 15.1, "unit": "nM"}, {"measurement": "ka", "setting": "human TNF [4]", "result": "1,471 M^−1s^−1"}, {"measurement": "t1/2", "setting": "human TNF [4]", "result": 9.0, "unit": "h"}, {"measurement": "OCC50 (50% TNF occupancy)", "setting": "human TNF [5]; [11]", "result": 14.3, "unit": "nM"}, {"measurement": "OCC90 (90% TNF occupancy)", "setting": "human TNF [5]; [11]", "result": 64.3, "unit": "nM"}, {"measurement": "TNF occupancy plateau", "setting": "human TNF [5]; zymosan-stimulated whole blood plasma", "result": "around 100%"}, {"measurement": "Clearance (in vitro intrinsic)", "setting": "human hepatocytes", "result": 8.0, "unit": "µl/min/10^6 cells"}, {"measurement": "AUCinf", "setting": "In vivo PK in rat; IV, 1 mg/kg", "result": 731, "unit": "ng·h/mL"}, {"measurement": "CL", "setting": "In vivo PK in rat; IV, 1 mg/kg", "result": 1.38, "unit": "L/h/kg"}, {"measurement": "Cmax", "setting": "In vivo PK in rat; IV, 1 mg/kg", "result": 424, "unit": "ng/mL"}, {"measurement": "T1/2,z", "setting": "In vivo PK in rat; IV, 1 mg/kg", "result": 2.1, "unit": "h"}, {"measurement": "Vz", "setting": "In vivo PK in rat; IV, 1 mg/kg", "result": 4.1, "unit": "L/kg"}, {"measurement": "AUCinf", "setting": "In vivo PK in rat; PO, 3 mg/kg", "result": 573, "unit": "ng·h/mL"}, {"measurement": "Bioavailability", "setting": "In vivo PK in rat; PO, 3 mg/kg", "result": 26, "unit": "%"}, {"measurement": "Cmax", "setting": "In vivo PK in rat; PO, 3 mg/kg", "result": 73.6, "unit": "ng/mL"}, {"measurement": "tmax", "setting": "In vivo PK in rat; PO, 3 mg/kg", "result": 4, "unit": "h"}, {"measurement": "IC90", "setting": "[6]", "result": 163, "unit": "nM"}, {"measurement": "bone volume fraction (BV/TV, %) of hind-paws compared to vehicle group", "setting": "[7]; 10 mg/kg BID", "result": "significantly higher"}, {"measurement": "bone volume fraction (BV/TV, %) of hind-paws compared to vehicle group", "setting": "[7]; 30 mg/kg BID", "result": "significantly higher"}, {"measurement": "Percentage reduction in mean AUC cfb arthritis score vs vehicle", "setting": "[8]; 1 mg/kg orally BID", "result": -15, "unit": "%"}, {"measurement": "Percentage reduction in mean AUC cfb arthritis score vs vehicle", "setting": "[8]; 3 mg/kg orally BID", "result": 12, "unit": "%"}, {"measurement": "Probability of reducing AUC of disease score by more than 50%", "setting": "[8]; 10 mg/kg BID, Bayesian analysis", "result": 0.87}, {"measurement": "Percentage reduction in mean AUC cfb arthritis score vs vehicle", "setting": "[8]; 10 mg/kg orally BID", "result": 68, "unit": "%"}, {"measurement": "Probability of reducing AUC of disease score by 50%", "setting": "[8]; 30 mg/kg BID, Bayesian analysis", "result": 0.99}, {"measurement": "Percentage reduction in mean AUC cfb arthritis score vs vehicle", "setting": "[8]; 30 mg/kg orally BID", "result": 84, "unit": "%"}, {"measurement": "free average exposure", "setting": "[8]; CIA mice, 10 mg/kg BID", "result": 24, "unit": "nM"}, {"measurement": "human hepatic clearance", "setting": "[9]; in vitro-in vivo extrapolation with correction for albumin binding", "result": 0.42, "unit": "L/h/kg"}, {"measurement": "human hepatic clearance", "setting": "[9]; in vitro-in vivo extrapolation without correction for albumin binding", "result": 0.81, "unit": "L/h/kg"}, {"measurement": "predicted human Vss", "setting": "[9]; simple three-species allometry", "result": 6.4, "unit": "L/kg"}, {"measurement": "predicted total human i.v. clearance", "setting": "[9]; simple three-species allometry", "result": 0.40, "unit": "L/h/kg"}, {"measurement": "Efflux", "setting": "Caco-2 TC7 cells; BSA 0.5%/0.5% pH 7.4/7.4, 1 μM", "result": 208, "unit": "nM/s"}, {"measurement": "Efflux", "setting": "Caco-2 TC7 cells; BSA 0.5%/0.5% pH 7.4/7.4, 20 μM", "result": 64.8, "unit": "nM/s"}, {"measurement": "Permeability", "setting": "Caco-2 TC7 cells; Caco-2 TC7 cells validated for BCS classification, in the presence of a P-gp inhibitor", "result": "High"}, {"measurement": "Permeability class", "setting": "Caco-2 TC7 cells; Caco-2 TC7 cells, at saturating concentrations", "result": "high permeable"}, {"measurement": "Efflux transporter substrate property", "setting": "Caco-2 TC7 cells; bi-directional flux/efflux with PSC833 (P-gp) and Ko-143 (BCRP) inhibitors", "result": "P-gp substrate"}, {"measurement": "AUCinf", "setting": "[10]; IV, 1 mg/kg", "result": "2,970 ng.h/ml"}, {"measurement": "CL", "setting": "[10]; IV, 1 mg/kg", "result": 0.355, "unit": "L/h/kg"}, {"measurement": "Cmax", "setting": "[10]; IV, 1 mg/kg", "result": 774, "unit": "ng/mL"}, {"measurement": "T1/2,z", "setting": "[10]; IV, 1 mg/kg", "result": 6.66, "unit": "h"}, {"measurement": "Vz", "setting": "[10]; IV, 1 mg/kg", "result": 2.59, "unit": "L/kg"}, {"measurement": "AUCinf", "setting": "[10]; PO, 3 mg/kg", "result": "6,620 ng.h/ml"}, {"measurement": "Cmax", "setting": "[10]; PO, 3 mg/kg", "result": 609, "unit": "ng/mL"}, {"measurement": "tmax", "setting": "[10]; PO, 3 mg/kg", "result": 2, "unit": "h"}, {"measurement": "Bioavailability", "setting": "[10]; PO, 3 mg/kg", "result": "67 ^b %"}, {"measurement": "AUCinf", "setting": "[10]; PO, 10 mg/kg", "result": "20 000 ng.h/ml"}, {"measurement": "Cmax", "setting": "[10]; PO, 10 mg/kg", "result": "1,250 ng/ml"}, {"measurement": "tmax", "setting": "[10]; PO, 10 mg/kg", "result": 6, "unit": "h"}, {"measurement": "Bioavailability", "setting": "[10]; PO, 10 mg/kg", "result": "68 ^b %"}, {"measurement": "AUCinf", "setting": "[10]; PO, 20 mg/kg", "result": "45 200 ng.h/ml"}, {"measurement": "Cmax", "setting": "[10]; PO, 20 mg/kg", "result": "2,490 ng/ml"}, {"measurement": "tmax", "setting": "[10]; PO, 20 mg/kg", "result": 8, "unit": "h"}, {"measurement": "Bioavailability", "setting": "[10]; PO, 20 mg/kg", "result": "77 ^b %"}, {"measurement": "AUCinf", "setting": "[10]; PO, 100 mg/kg", "result": "107 000 ng.h/ml"}, {"measurement": "Cmax", "setting": "[10]; PO, 100 mg/kg", "result": "3,640 ng/ml"}, {"measurement": "tmax", "setting": "[10]; PO, 100 mg/kg", "result": 6, "unit": "h"}, {"measurement": "Bioavailability", "setting": "[10]; PO, 100 mg/kg", "result": "36 ^b %"}]}
